Measured values from US12139488B2, “Pyrido[3,2-d]pyrimidine compounds uses thereof for treating a proliferative disease” (Universite de Montreal, priority 2021, dated 2024).

Protein sequences, listed by entry. Tags and fused reporters are not part of them.
UniProt P04049, whole entry: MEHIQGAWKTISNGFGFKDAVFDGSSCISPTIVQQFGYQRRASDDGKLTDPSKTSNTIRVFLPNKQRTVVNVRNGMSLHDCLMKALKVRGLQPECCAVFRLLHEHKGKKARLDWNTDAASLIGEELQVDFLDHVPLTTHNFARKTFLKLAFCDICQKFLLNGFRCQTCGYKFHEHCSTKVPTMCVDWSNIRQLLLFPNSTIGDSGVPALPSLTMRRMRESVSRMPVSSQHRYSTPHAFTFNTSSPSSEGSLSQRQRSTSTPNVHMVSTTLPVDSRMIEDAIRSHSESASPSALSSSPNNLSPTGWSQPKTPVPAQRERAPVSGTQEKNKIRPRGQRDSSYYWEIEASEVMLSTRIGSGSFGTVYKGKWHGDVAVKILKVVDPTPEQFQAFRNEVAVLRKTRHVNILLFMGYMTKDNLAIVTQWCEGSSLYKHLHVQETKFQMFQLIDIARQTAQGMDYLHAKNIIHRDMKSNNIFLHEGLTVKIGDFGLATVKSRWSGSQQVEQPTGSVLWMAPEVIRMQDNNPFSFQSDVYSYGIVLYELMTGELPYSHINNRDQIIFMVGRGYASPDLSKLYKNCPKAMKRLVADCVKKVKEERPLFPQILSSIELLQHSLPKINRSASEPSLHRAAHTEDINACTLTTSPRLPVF
UniProt P15056, whole entry: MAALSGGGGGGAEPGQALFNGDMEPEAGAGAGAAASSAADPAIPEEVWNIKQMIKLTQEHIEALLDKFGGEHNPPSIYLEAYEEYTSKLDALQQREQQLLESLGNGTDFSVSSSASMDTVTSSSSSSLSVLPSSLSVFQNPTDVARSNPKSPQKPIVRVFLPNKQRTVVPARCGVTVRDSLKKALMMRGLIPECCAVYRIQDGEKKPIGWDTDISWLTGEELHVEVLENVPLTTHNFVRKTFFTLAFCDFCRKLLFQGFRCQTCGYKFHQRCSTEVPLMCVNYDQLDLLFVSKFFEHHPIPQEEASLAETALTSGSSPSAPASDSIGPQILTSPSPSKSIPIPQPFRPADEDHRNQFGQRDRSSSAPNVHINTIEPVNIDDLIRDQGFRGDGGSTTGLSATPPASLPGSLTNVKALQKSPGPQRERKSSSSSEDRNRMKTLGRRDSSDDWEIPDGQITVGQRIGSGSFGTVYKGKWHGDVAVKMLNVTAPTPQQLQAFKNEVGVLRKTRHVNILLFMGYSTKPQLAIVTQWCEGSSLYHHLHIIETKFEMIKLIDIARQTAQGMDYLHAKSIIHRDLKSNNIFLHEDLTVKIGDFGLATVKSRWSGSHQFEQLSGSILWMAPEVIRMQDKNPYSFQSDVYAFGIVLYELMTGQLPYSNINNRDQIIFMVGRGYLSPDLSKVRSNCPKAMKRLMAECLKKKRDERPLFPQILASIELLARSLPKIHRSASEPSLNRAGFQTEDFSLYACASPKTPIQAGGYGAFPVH

Assays:
CRAF = CRAF (Homo sapiens, UniProt P04049); assay: CRAF kinase activity assay (ADP-Glo)
[1] = system: pERK in HCT-116 cells (KRAS G13D); assay: Phospho-ERK inhibition (AlphaLISA SureFire Ultra p-ERK 1/2), HCT116; conditions: for IC50: read-out: HCT116 pERK IC50; for HCT116 pERK % Ymin (lowest value of the IC50 curve): Ymin above −20% = minimal or no paradoxical activation
How it was run: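 p-ERK1/2 (Thr202/Tyr204) in lysates measured by AlphaLISA after 1 h compound exposure of overnight-plated cells (RPMI-1640, 5% FBS, 0.5% DMSO, ten concentrations, usually from 10 μM). Background from a trametinib control subtracted, inhibition normalised to vehicle, and IC50 fitted with a variable-slope four-parameter model.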

BRAF = BRAF (Homo sapiens (Human), UniProt P15056); assay: BRAF kinase activity assay (ADP-Glo)
[2] = read-out: Kinase IC50 (nM) CRAF
[3] = HCT116 cells, class symbol before the bracket
[4] = read-out: Kinase IC50 (nM) BRAF
[5] = read-out: Kinase IC50 (nM), CRAF biochemical kinase assay, CRAF
[6] = read-out: Kinase IC50 (nM), BRAF biochemical kinase assay, BRAF
[7] = read-out: Kinase IC50 (nM) CRAF, tested form: formic acid salt
[8] = HCT116 cells, Ymin in brackets, tested form: formic acid salt
[9] = HCT116 cells, class symbol before the bracket, tested form: formic acid salt
[10] = read-out: Kinase IC50 (nM) BRAF, tested form: formic acid salt

| IC50 (CRAF; [2]) [nM] | IC50 [1, 3] [nM] | IC50 (BRAF; [4]) [nM] | IC50 (CRAF; [5]) [nM] | HCT116 pERK % Ymin (lowest value of the IC50 curve) ([1]; HCT116 cells) [%] | IC50 ([1]; HCT116 cells) [nM] | IC50 (BRAF; [6]) [nM] | Structure (SMILES) | HCT116 pERK Ymin % ([1]; HCT116 cells, Ymin in brackets) [%] | further results |
| --- | --- | --- | --- | --- | --- | --- | --- | --- | --- |
| > 50 | 1000 to 10000 | > 10 |  |  |  |  | Cc1c(Cl)cccc1S(=O)(=O)Nc1ccc(F)c(Nc2ncnc3ccc(-n4nc(C(=O)N5CCC(O)(C(F)(F)F)CC5)c5ccccc54)nc23)c1F | −7 |  |
| 10 to 50 | < 500 | 1 to 10 |  |  |  |  | Cc1c(F)cccc1S(=O)(=O)Nc1ccc(F)c(Nc2ncnc3ccc(-n4nc(C(=O)N[C@H]5C[C@H](O)C5)c5ccccc54)nc23)c1F | 6.6 |  |
|  |  |  | < 10 | 1 | < 500 | < 1 | O=S(=O)(Nc1ccc(F)c(Nc2ncnc3ccc(-n4cnc5c(N6CCO[C@H](CO)C6)cccc54)nc23)c1F)c1cccc(Cl)c1Cl |  |  |
|  |  |  | < 10 | −3 | < 500 | < 1 | CCCN1CCN(c2cccc3c2nnn3-c2ccc3ncnc(Nc4c(F)ccc(NS(=O)(=O)c5cccc(Cl)c5Cl)c4F)c3n2)CC1 |  |  |
|  |  |  | < 10 | −6 | < 500 | < 1 | O=S(=O)(Nc1ccc(F)c(Nc2ncnc3ccc(-n4nnc5c(N6CCN(C7COC7)CC6)cccc54)nc23)c1F)c1cccc(Cl)c1Cl |  |  |
|  |  |  |  |  |  |  | CN(C)CCN(C)C(=O)c1cn(-c2ccc3ncnc(Nc4c(F)ccc(NS(=O)(=O)c5ccccc5Cl)c4F)c3n2)c2ccccc12 |  | IC50 (CRAF; read-out: Kinase IC50 (nM) CRAF, tested form: formate): > 50 nM; HCT116 pERK Ymin % ([1]; HCT116 cells, Ymin in brackets, tested form: formate): −10%; IC50 ([1]; HCT116 cells, class symbol before the bracket, tested form: formate): < 500 nM; IC50 (BRAF; read-out: Kinase IC50 (nM) BRAF, tested form: formate): < 1 nM |
| > 50 | 500 to 1000 | < 1 |  |  |  |  | Cc1c(F)cccc1S(=O)(=O)Nc1ccc(F)c(Nc2ncnc3ccc(-n4nc(C(=O)N(C)CCc5ccccn5)c5ccccc54)nc23)c1F | −14.5 |  |
|  |  |  |  |  |  |  | Cc1c(Cl)cccc1S(=O)(=O)Nc1ccc(F)c(Nc2ncnc3ccc(-n4cc(C(=O)N5CCNC[C@H]5C)c5ccccc54)nc23)c1F |  | IC50 (CRAF; [7]): > 50 nM; HCT116 pERK Ymin % [1, 8]: −3.3%; IC50 [1, 9]: < 500 nM; IC50 (BRAF; [10]): < 1 nM |
|  |  |  | < 10 | −8 | < 500 | < 1 | O=S(=O)(Nc1ccc(F)c(Nc2ncnc3ccc(-n4nnc5c(N6CCN(CCO)CC6)cccc54)nc23)c1F)c1cccc(Cl)c1Cl |  |  |
| > 50 | 1000 to 10000 | 1 to 10 |  |  |  |  | Cc1cn(-c2ccc3ncnc(Nc4c(F)ccc(NS(=O)(=O)c5cccc(Cl)c5C)c4F)c3n2)nc1C(=O)N1CCN(CCO)CC1 | 3 |  |
|  |  |  | 10 to 50 | 2 | < 500 | 1 to 10 | O=S(=O)(Nc1ccc(F)c(Nc2ncnc3ccc(-n4nnc5c(N6CCC(CCO)CC6)cccc54)nc23)c1F)c1cccc(Cl)c1Cl |  |  |
| > 50 | 1000 to 10000 | 1 to 10 |  |  |  |  | Cc1c(Cl)cccc1S(=O)(=O)Nc1ccc(F)c(Nc2ncnc3ccc(-n4cnc(C(=O)N5CCN(C)CC5)n4)nc23)c1F | 7 |  |
|  |  |  |  |  |  |  | CN(C)CCN(C)S(=O)(=O)c1cn(-c2ccc3ncnc(Nc4c(F)ccc(NS(=O)(=O)c5cccc(Cl)c5Cl)c4Cl)c3n2)c2ccccc12 |  | IC50 (CRAF; read-out: Kinase IC50 (nM) CRAF, Table 5): < 10 nM; HCT116 pERK Ymin % ([1]; lowest value of the curve, HCT116, Table 5): −15%; IC50 ([1]; HCT116 cells, Table 5): < 500 nM; IC50 (BRAF; read-out: Kinase IC50 (nM) BRAF, Table 5): < 1 nM |
|  |  |  | < 10 | −12 | < 500 | < 1 | CC(C)N1CCN(c2cccc3c2ncn3-c2ccc3ncnc(Nc4c(F)ccc(NS(=O)(=O)c5cccc(Cl)c5Cl)c4F)c3n2)CC1 |  |  |
|  |  |  | < 10 | −4 | 1000 to 10000 | 1 to 10 | COCCOCCOc1cccc2c1ncn2-c1ccc2ncnc(Nc3c(F)ccc(NS(=O)(=O)c4cccc(Cl)c4Cl)c3F)c2n1 |  |  |
| 10 to 50 | < 500 | 1 to 10 |  |  |  |  | Cc1c(F)cccc1S(=O)(=O)Nc1ccc(F)c(Nc2ncnc3ccc(-n4nc(C(=O)NCCc5ccccn5)c5ccccc54)nc23)c1F | −5.4 |  |
|  |  |  |  |  |  |  | O=C(c1nn(-c2ccc3ncnc(Nc4c(F)ccc(NS(=O)(=O)c5cccc(Cl)c5Cl)c4F)c3n2)c2ccccc12)N1CCN(CCO)CC1 |  | IC50 (CRAF; [7]): < 10 nM; HCT116 pERK Ymin % [1, 8]: −1.4%; IC50 [1, 9]: < 500 nM; IC50 (BRAF; [10]): < 1 nM |
|  |  |  | 10 to 50 | -14 | 500 to 1000 | 1 to 10 | Cc1c(S(=O)(=O)Nc2ccc(F)c(Nc3ncnc4ccc(-n5nnc6ccccc65)nc34)c2F)ccc(F)c1F |  |  |

Where two headings read alike, the source gives them in different places.
